Results on one molecule are retold here after patent US6831199B1, “Pyrimidine compounds and derivatives thereof” (G. D. Searle & Co., priority 1995, dated 2004).

Sequences of proteins named here, by UniProt entry; tags and fusion partners are left off. Residues count along the entry.
UniProt P08514, 32-887 limits assumed: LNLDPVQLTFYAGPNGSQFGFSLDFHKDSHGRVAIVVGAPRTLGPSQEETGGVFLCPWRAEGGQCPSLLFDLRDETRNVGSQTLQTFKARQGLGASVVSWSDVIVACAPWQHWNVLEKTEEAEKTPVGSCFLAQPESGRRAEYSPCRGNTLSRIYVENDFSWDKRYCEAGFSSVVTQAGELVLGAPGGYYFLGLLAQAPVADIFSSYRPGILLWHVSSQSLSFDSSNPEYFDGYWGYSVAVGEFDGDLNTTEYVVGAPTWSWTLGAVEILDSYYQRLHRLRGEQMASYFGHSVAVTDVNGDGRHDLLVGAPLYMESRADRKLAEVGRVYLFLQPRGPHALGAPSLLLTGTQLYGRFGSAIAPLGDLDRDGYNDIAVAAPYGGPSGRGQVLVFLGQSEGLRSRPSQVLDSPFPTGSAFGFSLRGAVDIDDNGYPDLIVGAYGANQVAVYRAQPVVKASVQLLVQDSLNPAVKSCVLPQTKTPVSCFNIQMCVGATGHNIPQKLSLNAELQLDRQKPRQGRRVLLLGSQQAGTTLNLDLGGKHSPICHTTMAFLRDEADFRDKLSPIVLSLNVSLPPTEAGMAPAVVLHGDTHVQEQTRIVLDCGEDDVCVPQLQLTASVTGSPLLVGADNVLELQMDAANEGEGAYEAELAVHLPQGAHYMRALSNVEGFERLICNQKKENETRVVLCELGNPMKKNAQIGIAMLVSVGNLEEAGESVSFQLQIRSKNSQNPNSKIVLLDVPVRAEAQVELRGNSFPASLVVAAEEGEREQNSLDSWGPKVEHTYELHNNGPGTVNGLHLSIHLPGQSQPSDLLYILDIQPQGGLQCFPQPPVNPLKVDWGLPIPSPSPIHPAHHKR
UniProt P08514, 891-1039 limits assumed: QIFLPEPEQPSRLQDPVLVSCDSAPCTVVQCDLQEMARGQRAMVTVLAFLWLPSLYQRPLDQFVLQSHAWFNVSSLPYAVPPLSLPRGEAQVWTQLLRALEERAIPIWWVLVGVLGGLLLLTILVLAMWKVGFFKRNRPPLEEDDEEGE

Molecules are shown by their SMILES. pIC50: −log10 of the molar value.

For assay [1], the target named is Human fibrinogen receptor (αIIbβ3) (Homo sapiens, UniProt P05106+P08514). The assay can be described thus: Purified IIb/IIIa receptor assay (solid phase receptor assay, competition with biotinylated vitronectin). It counts as binding. The conditions noted are these: read-out: IIb/IIIa IC50; tested form: TFA.
For assay [2], the target named is Human vitronectin receptor (αvβ3) (Homo sapiens, UniProt P05106+P06756). The assay can be described thus: Vitronectin adhesion assay (solid phase receptor assay, competition with biotinylated vitronectin). The conditions noted are these: read-out: AvB3 IC50; tested form: TFA. It counts as binding.

On to `CCOC(=O)CC(NC(=O)CNC(=O)c1cccc(NC(=N)N)c1)c1ccc(Cl)s1` (racemic), for which the pIC50 was 6.55 in assay [1] and 8.46 in assay [2].
